In BindingDB's records for doi:10.1016/s0960-894x(03)00532-8 (British Biotech Pharmaceuticals, 2003):

Target: Peptide deformylase (Escherichia coli) (UniProt P0A6K3)
Test: Inhibition against Escherichia coli peptide deformylase

IC50: 1000 nM
SMILES: CCCC[C@H](CCN(O)C=O)C(=O)N[C@H](C(=O)N(C)C)C(C)(C)C [(R)-2-[2-(Formyl-hydroxy-amino)-ethyl]-hexanoic acid ((S)-1-dimethylcarbamoyl-2,2-dimethyl-propyl)-amide]
